Data on 3 compounds can be found in patent publication US8389512B2 (priority 2008, dated 2013).

This data set is described as follows: 4 hr in-vivo study: meloxicam plasma concentration after oral delivery to rats. Particulars: rat.

Compound `Cc1cnc(NC(=O)C2=C(O)c3ccccc3S(=O)(=O)N2C)s1.O=C(O)c1ccc2ccccc2c1O` [Cocrystal 76, Meloxicam: 1-Hydroxy-2-Naphthoic Acid Cocrystal (1:1)] had a meloxicam plasma concentration (time 15 min) of 22.41 µg/mL. For the compound `Cc1cnc(NC(=O)C2=C(O)c3ccccc3S(=O)(=O)N2C)s1.Cc1cnc(NC(=O)C2=C(O)c3ccccc3S(=O)(=O)N2C)s1.O=C(O)CCC(=O)O` [Cocrystal 144, Meloxicam:Succinic Acid Cocrystal (2:1)], the meloxicam plasma concentration (time 30 min) stood at 22.43 µg/mL. Compound `Cc1cnc(NC(=O)C2=C(O)c3ccccc3S(=O)(=O)N2C)s1.O=C(O)CC(=O)O` [Cocrystal 22, Meloxicam:Malonic Acid Cocrystal (1:1)] came in with a meloxicam plasma concentration (time 240 min) of 29.23 µg/mL.
